From US12410228B2, “Insulin analogs” (UNIVERSITY OF UTAH RESEARCH FOUNDATION, priority 2016, dated 2025)

Protein sequences, listed by entry. Tags and fused reporters are not part of them. Residues count along the entry.
UniProt P06213, 28-758 limits assumed: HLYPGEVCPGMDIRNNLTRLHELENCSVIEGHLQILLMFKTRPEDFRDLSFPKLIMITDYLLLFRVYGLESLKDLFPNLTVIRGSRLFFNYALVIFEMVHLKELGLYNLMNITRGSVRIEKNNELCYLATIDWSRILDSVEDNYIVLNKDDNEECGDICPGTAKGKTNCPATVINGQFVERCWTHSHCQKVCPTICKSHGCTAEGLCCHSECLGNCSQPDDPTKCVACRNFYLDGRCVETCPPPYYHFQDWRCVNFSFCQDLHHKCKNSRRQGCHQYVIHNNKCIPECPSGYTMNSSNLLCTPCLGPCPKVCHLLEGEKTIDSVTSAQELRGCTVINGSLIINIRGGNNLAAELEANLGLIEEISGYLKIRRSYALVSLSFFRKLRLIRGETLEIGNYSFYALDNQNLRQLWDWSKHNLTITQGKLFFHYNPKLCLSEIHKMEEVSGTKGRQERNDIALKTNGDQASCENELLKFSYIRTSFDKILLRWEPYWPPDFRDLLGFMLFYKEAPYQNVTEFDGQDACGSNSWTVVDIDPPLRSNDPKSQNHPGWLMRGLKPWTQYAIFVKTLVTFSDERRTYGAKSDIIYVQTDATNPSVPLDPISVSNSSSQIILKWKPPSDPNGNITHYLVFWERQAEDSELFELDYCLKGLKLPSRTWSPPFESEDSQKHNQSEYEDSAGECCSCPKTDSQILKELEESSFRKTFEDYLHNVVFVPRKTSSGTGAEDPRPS
UniProt P06213, 763-1382 partner limits assumed: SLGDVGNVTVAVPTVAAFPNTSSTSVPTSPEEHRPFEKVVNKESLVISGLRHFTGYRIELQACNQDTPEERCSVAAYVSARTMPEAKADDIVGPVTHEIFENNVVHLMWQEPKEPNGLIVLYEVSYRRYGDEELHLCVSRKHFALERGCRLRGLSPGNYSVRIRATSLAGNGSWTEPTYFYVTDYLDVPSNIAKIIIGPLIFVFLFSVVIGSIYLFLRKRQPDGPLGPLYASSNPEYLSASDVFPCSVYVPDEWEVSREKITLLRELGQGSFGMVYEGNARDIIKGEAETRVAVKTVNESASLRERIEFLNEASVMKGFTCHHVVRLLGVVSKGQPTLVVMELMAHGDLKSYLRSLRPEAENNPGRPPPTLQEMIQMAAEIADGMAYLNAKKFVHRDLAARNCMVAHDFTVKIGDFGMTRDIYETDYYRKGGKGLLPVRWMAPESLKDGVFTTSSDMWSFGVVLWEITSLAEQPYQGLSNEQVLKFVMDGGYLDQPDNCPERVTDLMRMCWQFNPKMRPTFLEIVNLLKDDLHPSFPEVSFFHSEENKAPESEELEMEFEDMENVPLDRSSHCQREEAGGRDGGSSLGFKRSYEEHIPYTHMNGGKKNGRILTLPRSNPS

Assays:
human IR (isoform B) = target: T1, human IR (isoform B) (Homo sapiens, UniProt P06213); type: binding
T1 construct: expressed in transfected cells; host or cells: R- IR-B cells, lysed with Triton X-100 and captured with anti-IR antibody 83-7; This comes from the general description of the Denley et al. 2004 format

human IR-B = target: T2, human IR-B (Homo sapiens, UniProt P06213); assay: cell-based
T2 construct: expressed in transfected cells; host or cells: NIH 3T3 mouse fibroblasts overexpressing human IR-B (puromycin selection)

[1] = type: physicochemical; details: pH 7.4

SMILES: CC[C@H](C)[C@@H]1NC(=O)[C@H](CC(C(=O)O)C(=O)O)NC(=O)[C@H](CO)NC(=O)CNC(=O)[C@@H](NC(=O)[C@H](CCCNC(=N)N)NC(=O)[C@H](Cc2c[nH]cn2)NC(=O)[C@H](CCCCN)NC(=O)[C@@H]2C[C@@H](O)CN2C(=O)[C@@H](NC(=O)[C@H](CC(=O)O)NC(=O)[C@H](Cc2ccccc2)NC(=O)[C@@H](N)[C@@H](C)O)[C@@H](C)O)CSSC[C@@H]2NC(=O)[C@@H](NC(=O)[C@H](Cc3c[nH]cn3)NC(=O)[C@H](CC(C(=O)O)C(=O)O)NC(=O)[C@@H](NC(=O)[C@@H](NC(=O)CN)C(C)C)C(C)C)CSSC[C@H](NC(=O)[C@@H]3CCCN3C(=O)[C@H](CCCNC(=N)N)NC(=O)[C@H](Cc3c[nH]cn3)NC2=O)C(=O)N[C@@H](CO)C(=O)N[C@@H](CC(N)=O)C(=O)N[C@@H](C)C(=O)N[C@@H](CCC(=O)O)C(=O)N[C@@H](Cc2ccccc2)C(=O)N[C@@H](CCCCN)C(=O)N[C@@H](CCCCN)C(=O)N[C@@H](Cc2ccc(O)cc2)C(=O)N[C@H](C(N)=O)CSSC[C@@H](C(=O)N[C@@H](Cc2ccc(O)cc2)C(=O)N[C@@H](CCCNC(=N)N)C(=O)O)NC(=O)[C@H](CC(C)C)NC(=O)[C@H](CC(=O)O)NC(=O)[C@H](CCSC)NC(=O)[C@H](Cc2ccc(O)cc2)NC(=O)[C@H](CO)NC(=O)[C@H](CC(N)=O)NC(=O)[C@H]([C@@H](C)O)NC1=O [Con-Ins G1]
- activity / affinity at human IR relative to human insulin (fold less) (human IR (isoform B)): 30 fold
- EC50 (human IR-B): 6.03 nM
- activity in Akt phosphorylation assay relative to hIns (human IR-B): ca ten-fold less active
- apparent MW of single sedimenting species [1]: 5380 ± 55 g/mol
- self-association state in solution [1]: predominantly monomeric
